# Experimental data: PubChem BioAssay AID602261 (Sanford-Burnham Center for Chemical Genomics, 2012)
# The chains behind the UniProt entries cited, without tags or fusion partners.
# UniProt P49327, whole entry, looked up: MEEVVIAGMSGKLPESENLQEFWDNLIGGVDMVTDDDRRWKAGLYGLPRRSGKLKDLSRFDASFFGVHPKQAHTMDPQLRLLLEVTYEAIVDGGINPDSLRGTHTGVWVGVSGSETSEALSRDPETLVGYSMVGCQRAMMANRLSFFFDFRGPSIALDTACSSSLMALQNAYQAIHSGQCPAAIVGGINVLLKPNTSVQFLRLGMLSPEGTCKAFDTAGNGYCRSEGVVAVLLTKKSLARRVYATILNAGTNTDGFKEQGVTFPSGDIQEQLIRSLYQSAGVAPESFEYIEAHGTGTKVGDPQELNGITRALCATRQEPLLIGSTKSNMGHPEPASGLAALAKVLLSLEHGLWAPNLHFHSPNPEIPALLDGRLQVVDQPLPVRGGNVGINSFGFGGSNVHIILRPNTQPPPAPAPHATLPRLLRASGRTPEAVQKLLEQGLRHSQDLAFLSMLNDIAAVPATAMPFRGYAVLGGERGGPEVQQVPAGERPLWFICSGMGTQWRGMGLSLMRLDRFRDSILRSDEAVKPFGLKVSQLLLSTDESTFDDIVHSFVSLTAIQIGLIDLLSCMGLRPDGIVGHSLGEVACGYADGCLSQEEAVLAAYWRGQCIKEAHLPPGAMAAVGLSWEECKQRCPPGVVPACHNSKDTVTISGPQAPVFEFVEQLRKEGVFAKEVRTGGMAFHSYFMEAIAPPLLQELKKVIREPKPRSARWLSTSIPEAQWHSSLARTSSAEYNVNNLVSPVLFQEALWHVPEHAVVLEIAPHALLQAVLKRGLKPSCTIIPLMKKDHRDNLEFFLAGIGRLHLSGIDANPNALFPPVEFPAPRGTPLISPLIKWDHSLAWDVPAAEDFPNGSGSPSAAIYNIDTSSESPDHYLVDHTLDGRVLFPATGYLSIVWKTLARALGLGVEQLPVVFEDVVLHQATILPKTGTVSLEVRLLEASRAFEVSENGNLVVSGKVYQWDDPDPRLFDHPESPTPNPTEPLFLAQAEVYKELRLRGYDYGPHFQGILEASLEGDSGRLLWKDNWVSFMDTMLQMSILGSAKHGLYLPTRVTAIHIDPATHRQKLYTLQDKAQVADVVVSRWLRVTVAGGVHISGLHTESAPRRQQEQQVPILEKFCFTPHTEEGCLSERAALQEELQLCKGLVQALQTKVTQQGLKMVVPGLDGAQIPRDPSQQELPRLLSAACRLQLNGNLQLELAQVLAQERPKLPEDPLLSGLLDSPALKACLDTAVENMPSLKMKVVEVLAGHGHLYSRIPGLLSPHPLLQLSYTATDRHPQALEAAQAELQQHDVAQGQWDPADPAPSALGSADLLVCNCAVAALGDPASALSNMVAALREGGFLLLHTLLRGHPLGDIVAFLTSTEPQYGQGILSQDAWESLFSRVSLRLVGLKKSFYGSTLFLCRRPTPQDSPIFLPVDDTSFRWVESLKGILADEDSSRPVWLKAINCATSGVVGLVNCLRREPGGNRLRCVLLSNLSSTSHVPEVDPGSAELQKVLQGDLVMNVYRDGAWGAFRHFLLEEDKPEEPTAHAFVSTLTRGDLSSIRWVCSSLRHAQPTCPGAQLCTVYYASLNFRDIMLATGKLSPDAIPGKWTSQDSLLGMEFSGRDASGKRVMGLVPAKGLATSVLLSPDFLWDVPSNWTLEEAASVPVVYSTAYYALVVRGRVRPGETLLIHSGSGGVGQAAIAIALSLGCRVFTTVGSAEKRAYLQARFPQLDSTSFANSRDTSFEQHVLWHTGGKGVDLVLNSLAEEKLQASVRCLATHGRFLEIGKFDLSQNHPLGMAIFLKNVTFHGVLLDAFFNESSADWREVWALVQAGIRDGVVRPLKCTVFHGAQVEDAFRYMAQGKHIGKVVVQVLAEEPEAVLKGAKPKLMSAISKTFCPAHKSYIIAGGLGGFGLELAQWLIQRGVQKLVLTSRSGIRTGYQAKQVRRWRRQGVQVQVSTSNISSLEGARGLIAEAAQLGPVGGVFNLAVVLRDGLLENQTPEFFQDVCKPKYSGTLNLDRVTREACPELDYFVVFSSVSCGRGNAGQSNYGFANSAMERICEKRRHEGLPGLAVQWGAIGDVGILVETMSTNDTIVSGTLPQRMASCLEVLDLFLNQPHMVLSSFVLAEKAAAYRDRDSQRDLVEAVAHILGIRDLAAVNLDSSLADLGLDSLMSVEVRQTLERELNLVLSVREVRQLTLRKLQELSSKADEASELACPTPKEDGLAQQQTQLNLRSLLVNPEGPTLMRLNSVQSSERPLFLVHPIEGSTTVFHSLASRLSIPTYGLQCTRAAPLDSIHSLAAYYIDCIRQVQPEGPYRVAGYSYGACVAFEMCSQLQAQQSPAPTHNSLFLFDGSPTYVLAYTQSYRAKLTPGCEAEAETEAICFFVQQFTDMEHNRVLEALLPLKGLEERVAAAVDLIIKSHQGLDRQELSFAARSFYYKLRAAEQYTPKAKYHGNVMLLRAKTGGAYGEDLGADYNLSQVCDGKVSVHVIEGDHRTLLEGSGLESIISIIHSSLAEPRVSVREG
# This is a selection; strong and weak results do not stand in their true shares. Active and inactive are the calls of the source.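 How the source made its calls: active means compounds whose normalised, plate-corrected inhibition of enzyme fluorescence in the single-dose primary screen is 50% or more; inactive means the rest.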
# Target: Fatty acid synthase (Homo sapiens) (UniProt P49327)
# Assay: FAS thioesterase domain inhibitors, primary screen, biochemical, fluorescence intensity, uHTS (AID 602261);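 further: 0% = DMSO with enzyme and 100% = substrate without enzyme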
# Conditions: recombinant FAS-TE, OMFH fluorogenic substrate, fluorescence endpoint; at 15 µM; hits give high values
row,Structure (SMILES),inhibition
1,Cc1cc(SC(NC=O)C(Cl)(Cl)Cl)ncn1 (centres undefined),inactive: -13.8%
2,O=P(Nc1ccccn1)(c1cccc2ccccc12)c1cccc2ccccc12,inactive: 4.9%
3,O=[As](O)(c1ccc(O)cc1)c1ccccc1O,inactive: -4.2%
4,C[As](=O)(O)c1cccc(C(=O)O)c1,inactive: -0.9%
5,O=[N+]([O-])c1ccc(-c2cc([N+](=O)[O-])c(O)c([N+](=O)[O-])c2)cc1,inactive: 44.4%
6,COc1cc(C(=O)NCC2(N3CCOCC3)CCCCC2)ccc1OCC(C)C,inactive: -1.7%
7,Cc1ccc2nc3c(c(C)c2c1)CC(C(Cl)Cl)S3 (centres undefined),inactive: 14.6%
8,Cc1ccc(OP(=O)(Nc2ccc([N+](=O)[O-])cn2)Oc2ccc(C)cc2)cc1,inactive: 15.5%
9,[N-]=[N+]=NC1CCCCC1NC(=O)c1cc([N+](=O)[O-])cc([N+](=O)[O-])c1 (centres undefined),inactive: 9.9%
10,COC(=O)C1(C)COP(=O)(N2CCCCCC2)OC1 (centres undefined),inactive: -10%
11,CC(C)c1ccc(OP(=O)(Nc2ccccn2)Oc2ccccc2F)cc1 (centres undefined),inactive: 23.3%
12,ClCCSc1nnc(-c2cccnc2)o1,inactive: -4.3%
13,CC(C)NC(=O)NP(=O)(Oc1ccccc1)Oc1ccccc1,inactive: -3%
14,O=C(OC1CN2CCC1CC2)c1cccc2[nH]cnc12 (centres undefined),inactive: -1.7%
15,CCN(CC)C(=S)SC(NC=O)C(Cl)(Cl)Cl (centres undefined),inactive: -5.7%
16,O=[N+]([O-])c1cc([N+](=O)[O-])c(-c2ccn[nH]2)s1,inactive: -12.2%
17,O=C(OC1CN2CCC1CC2)C12CC3CC(CC(C3)C1)C2 (centres undefined),inactive: -5.4%
18,Cc1cc(=O)[nH]c(N[N+](=O)[O-])n1,inactive: -9.7%
19,Cc1c2c(nc3ccccc13)SC(C(Cl)Cl)C2 (centres undefined),inactive: 19.4%
20,COc1ccc2nc(NP(=O)(c3ccccc3)c3ccccc3)sc2c1,inactive: -0.2%
21,COc1cc(I)ccc1[As](=O)(O)O,inactive: -2.3%
22,O=P1(N(CCCl)CCCl)OCCCN1CCCl (centres undefined),inactive: -9.3%
23,O=P1(N(CCCl)CCCl)Nc2ccccc2N1,inactive: -9%
24,COc1ccc(N/C(=N/P(=O)(N2CCOCC2)N2CCOCC2)N2CCOCC2)cc1,inactive: -5%
25,O=[N+]([O-])c1cc(Oc2ccc([N+](=O)[O-])cc2C(F)(F)F)cc([N+](=O)[O-])c1,inactive: 26.7%

row,Structure (SMILES),inhibition
1,O=[As](O)(O)c1cccnc1,inactive: -4.7%
2,COc1cc(C(=O)NCC2(N3CCOCC3)CCCCC2)cc(Cl)c1OC(C)C,inactive: 8.9%
3,CS(=O)(=O)c1ccc(Cl)c(NC(=O)COC(=O)C(O)(c2ccccc2)c2ccccc2)c1,inactive: 0.7%
4,O=C(OC1CN2CCC1CC2)c1ccc(Cl)cc1 (centres undefined),inactive: -4%
5,Cc1cccc(OCC(=O)OC2CN3CCC2CC3)c1 (centres undefined),inactive: -3.7%
6,O=[As](O)(c1cccc(O)c1)c1cccc(O)c1,inactive: -4.3%
7,CCCOP(=S)(Nc1nc(N)cc(=O)[nH]1)OCCC,inactive: -4.7%
8,Nc1cccc2c([As](=O)(O)O)cccc12,inactive: -22.2%
9,Cc1ccc(NCCc2c([N+](=O)[O-])cc([N+](=O)[O-])cc2[N+](=O)[O-])cc1,inactive: -95.8%
10,COc1cc(C2NCCC3(OCCO3)C2(C)C)cc(OC)c1OC (centres undefined),inactive: -11.1%
11,CCOP(=O)(Nc1cccc2ccccc12)OCC,inactive: -11.6%
12,CS(=O)(=O)c1cc([N+](=O)[O-])c2no[n+]([O-])c2c1,inactive: 3.2%
13,CCOP1(=S)c2c(C)nn(CCC#N)c2N=C(c2ccccc2F)N1C (centres undefined),inactive: 0.1%
14,O=P(Nc1nccs1)(Oc1ccccc1)Oc1ccccc1,inactive: -1.4%
15,O=P(Nc1nccs1)(c1ccccc1)c1nc2ccccc2s1 (centres undefined),inactive: 34.5%
16,O=C(O)COc1ccc([As](=O)(O)O)cc1[N+](=O)[O-],inactive: -0.8%
17,Nc1ccccc1[As](=O)(O)c1ccccc1,inactive: -8.2%
18,NC(=O)Nc1ccc([As](=O)(O)O)cc1,inactive: -7.2%
19,O=[N+]([O-])c1ccc2c(c1)nnn2O,inactive: -6.3%
20,CN(C)C(=O)c1cc([N+](=O)[O-])cc2c1-c1c(cc([N+](=O)[O-])cc1[N+](=O)[O-])C2=O,inactive: -32.9%
21,CN(C(=O)Cc1ccc(Cl)c(Cl)c1)[C@H]1CC[C@@]2(CCCO2)C[C@@H]1N1CCCC1,inactive: -4%
22,N#CCCN(C(=O)COC(=O)C(O)(c1ccccc1)c1ccccc1)c1ccc(F)cc1,inactive: 2.2%
23,CN(C(=O)Cc1ccccc1)[C@@H]1CC[C@]2(CCCO2)C[C@H]1N1CCCC1,inactive: 1.4%
24,CCOP1(=S)c2c(C)nn(CCC#N)c2N=C(c2ccc(F)cc2)N1C (centres undefined),inactive: -3.8%
25,Cc1nn(-c2ccccc2)c2c1P(=O)(N1CCOCC1)N(C)C(c1ccccc1)=N2 (centres undefined),inactive: -6%

row,Structure (SMILES),inhibition
1,Cc1ccc(C(=O)OC2CN3CCC2CC3)cc1 (centres undefined),inactive: -7.1%
2,CC1CCC(C(C)C)C(OP(=O)(Nc2ccccn2)c2ccccc2)C1 (centres undefined),inactive: 7.3%
3,O=C(/C=C/c1ccccc1)OC1CN2CCC1CC2 (centres undefined),inactive: 0%
4,CCCC1OP(=O)(Nc2ccccc2)OCC1CC (centres undefined),inactive: -4.8%
5,CN(C)C1(CNC(=O)c2ccc(S(C)(=O)=O)cc2)CCCCC1,inactive: -5.6%
6,O=P1(Nc2ncccn2)COc2ccccc2OC1,inactive: -7.5%
7,Cc1ccc(S(=O)(=O)N(CCCN)CCCc2c(C)nc(N)[nH]c2=O)cc1,inactive: -2.7%
8,O=[As](O)(c1cccs1)c1cccs1,inactive: -3.9%
9,Cc1ccc(OCC(=O)OC2CN3CCC2CC3)cc1 (centres undefined),inactive: -6.3%
10,NS(=O)(=O)c1cccc(NC(=O)COC(=O)C(O)(c2ccccc2)c2ccccc2)c1,inactive: 1.4%
11,O=P1(Nc2ccc(Br)cn2)COc2ccccc2OC1,inactive: 1.1%
12,Nc1cccc([As](=O)(O)c2ccccc2)c1,inactive: -2.4%
13,CCOP(=O)(Nc1ccc(C)cn1)OCC,inactive: -3.9%
14,CN(CCCl)Cc1cc(Cl)c(NC2=NCCN2)c(Cl)c1,inactive: -11.3%
15,CCC1=CC2Cc3nc4ccc(Cl)cc4c(N)c3C(C1)C2 (centres undefined),inactive: 3.2%
16,O=P1(Nc2ccccn2)COc2ccccc2OC1,inactive: -7%
17,CCOP(=O)(NC(=NC(C)c1ccccc1)NC(C)c1ccccc1)OCC (centres undefined),inactive: -1.7%
18,Clc1n[nH]nc1-c1nn[nH][15n]1,inactive: -14.8%
19,O=P1(N(CCCl)CCCl)NCCC(C(F)(F)F)O1 (centres undefined),inactive: -7%
20,CC(C)(C)C(=O)NC(Sc1ncccn1)C(Cl)(Cl)Cl (centres undefined),inactive: -2.1%
21,COc1ccccc1CNC(=O)COC(=O)C(O)(c1ccccc1)c1ccccc1,inactive: -1%
22,CC1(CBr)Cn2c(nc3ccccc3c2=O)S1 (centres undefined),inactive: -7.7%
23,CN(C(=O)Cc1ccc(Cl)c(Cl)c1)[C@@H]1CCCC[C@H]1N1CCCC1,inactive: 2.1%
24,CC(C)/C=N\N=C(\N)N[N+](=O)[O-],inactive: -3.9%
